# An excerpt weighted towards active compounds, which were near 13% of everything screened.
# G9a block: G9a (human) methyltransferase inhibition; G9a H3K9 monomethylation, AlphaScreen, 2 h; Q96KQ7; 350,000 compounds, 8.8% hits; Potency, µM (top dose mostly 102 µM), without a hit: top-dose activity, negative = inhibition, hits mostly inhibitors; note: potency is the fitted concentration of half-maximal effect; % is set by controls: 0 for no effect and ±100 for the full control effect; nearly all actives have a fitted effect of over 75% in size
#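 AlphaScreen read-out: biotin-H3K9 peptide (500 nM) methylation by 20 nM enzyme with 20 uM SAM, 2 h at room temperature after 15 min compound preincubation; anti-monomethyl H3K9 antibody plus donor/acceptor beads, 10 min dark.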
# JMJD2E inh: JMJD2E (human) inhibition | B2RXH2 | JMJD2E catalytic domain, FDH-coupled NADH fluorescence (FDH is formaldehyde dehydrogenase) | Potency, µM (highest dose often 57.1 µM), for inactives: at the highest dose activity change, negative = inhibition, most hits filed as inhibitors | 230,000 compounds, 1.6% hits | AID 2147; active = well fitted inhibition curve with a large enough effect, not every such curve was filed as active; inconclusive = small, poorly fitted or top-dose-only effect, or another doubt; inactive = no such curve, though single readings can be large or run the other way;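 note: potency is the fitted concentration of half-maximal effect; 0% = wells with enzyme and -100% = buffer wells without enzyme; nearly all actives have a fitted effect of over 50% in size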
# LMNA splice mod: LMNA splicing modulation; Potency, µM (top dose mostly 46.1 µM), for inactives: top-dose ratio change, negative = inhibition, most hits filed as inhibitors; 200,000 compounds, 0.01% hits; HeLa LMNA splicing GFP/RFP minigene ratio, 48 h; active = well fitted inhibition curve with a large enough effect in the signal ratio, with a control signal flat, not every such curve was filed as active; inconclusive = small, poorly fitted or top-dose-only effect, or effect the other way, or a change in a side signal; the % refers to the signal ratio; note: potency is the fitted concentration of half-maximal effect; % is set by controls: 0 for no effect and ±100 for the full control effect
#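 S3 HeLa stable clones carrying a lamin A-EGFP splicing minigene plus DsRed2 were seeded at 600 cells/well in Opti-MEM with 2% FBS, pin-dosed and incubated 48 h at 37°C. Acumen cytometry (488 nm) gave the GFP/RFP total-intensity ratio.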
# Sfp inh: Sfp phosphopantetheinyl transferase inhibition | Q9F4F7 | Biochemical Sfp PPTase activity, qHTS | Potency, µM, inactives show max response, negative = inhibition, usual class: inhibitors | actives 3.5% (n = 310,000) | AID 1490; active = well fitted inhibition curve with a large enough effect; inconclusive = small, poorly fitted or top-dose-only effect, or another doubt; inactive = no such curve, though single readings can be large or run the other way;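 also: the enzyme is Sfp with the accession as filed and its product quenches rhodamine fluorescence; potency is read from the fitted curve at half-maximal effect; 0% = enzyme reaction without inhibitor and -100% = no enzyme wells; top concentration of the series not given in the record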
#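 Step 1, compound plus 15 nM Sfp-PPTase, 15 min, room temperature. Step 2, add rhodamine-CoA (5 uM) and BHQ-2-YbbR (12.5 uM). Step 3, read 525/598 nm fluorescence at 0 and 30 min.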
# ALDH1A1 inh: blocks purified human ALDH1A1 activity; P00352; 220,000 compounds, 7.3% hits; Potency, µM (top dose mostly 75.3 µM), for the others: top-dose activity, negative = inhibition, hits mostly inhibitors; AID 1030; Purified ALDH1A1, NADH fluorescence, propionaldehyde substrate; active = well fitted inhibition curve with a large enough effect, not every such curve was filed as active; inconclusive = small, poorly fitted or top-dose-only effect, or another doubt; inactive = no such curve, though single readings can be large or run the other way;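 note: potency is the fitted concentration of half-maximal effect; plate controls were no enzyme wells and a reference inhibitor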
# miR-21 reporter: miR-21 reporter, rising signal | Potency, µM (highest dose often 38.3 µM), for inactives: at the highest dose reporter change, positive = more light | 340,000 tested, under 10 active | HeLa miR-21 FLuc reporter, luciferase, 48 h; active = well fitted rising curve with a large enough effect; inconclusive = small, poorly fitted or top-dose-only effect; inactive = no such curve, though single readings can be large or run the other way;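 note: % of control where 0% means no effect; miR-21 action dims this reporter so a rising signal means less miR-21 action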
#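 Luminescence from a firefly luciferase reporter carrying a miR-21 binding site downstream, stably expressed under a CMV promoter in HeLa cells that make miR-21 endogenously, reports miRNA modulation after 48 h compound exposure up to approximately 40uM final.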
# * marks the source's active call; other numbers are inactive results; ? = inconclusive; / = no result given; [ ] = remark or other dose. Unless noted, calls come from the whole dose curve; as a rule, active = well fitted curve in the direction sought with a large enough effect; inconclusive = small, poorly fitted or top-dose-only effect, or another doubt; inactive = no such curve, though single readings can be large; an effect the other way counts as inactive or inconclusive.
# The opening two records, to show the layout:
1) CCOc1ccccc1NC(=O)Cn1c(=O)n(CCC(=O)NCc2ccc3c(c2)OCO3)c(=O)c2ccccc21
2) COc1ccc(C(=O)CCN2CCC(C)CC2)cc1
assay / entry	1	2
G9a block	30%[59 µM]	16µM*
JMJD2E inh	/	/
LMNA splice mod	/	/
Sfp inh	/	-4%
ALDH1A1 inh	/	/
miR-21 reporter	-8%	5%

# Results, from the start:
1) CCOc1ccccc1NC(=O)Cn1c(=O)n(CCC(=O)NCc2ccc3c(c2)OCO3)c(=O)c2ccccc21
2) COc1ccc(C(=O)CCN2CCC(C)CC2)cc1
3) CC1CCCN(CCCCOc2cccc(Br)c2)C1 (stereo unspecified)
4) Cc1cccc(NC(=O)CCN2CCCC(C)C2)c1 (stereo unspecified)
5) COc1ccc(N2CCN(CC(=O)N3CCC(C)CC3)CC2)cc1
6) COc1ccc(C(=O)CCN2CCCC(C)C2)cc1 (stereo unspecified)
7) CC1CCCN(CCOc2ccc(Br)cc2)C1 (stereo unspecified)
8) CC1CCCN(CCC(=O)c2ccc(Br)cc2)C1 (stereo unspecified)
assay / entry	1	2	3	4	5	6	7	8
G9a block	30%[59 µM]	16µM*	?	/	?	25µM*	10µM*	?
JMJD2E inh	/	/	3%	/	1%	/	?	0%
LMNA splice mod	/	/	-12%	/	1%	/	-3%	?
Sfp inh	/	-4%	-7%	-5%	11%	-16%	?	-14%
ALDH1A1 inh	/	/	-12%	/	-11%	/	-15%	0.13µM*
miR-21 reporter	-8%	5%	-6%	-1%	0%	0%	0%	-5%

9) O=S(=O)(c1ccccc1)[C@@]1(c2ccc(Br)cc2)C[C@@H]2ON=C(c3ccccc3)[C@@H]2C1
10) C=CCC1NS(=O)(=O)OC(CCc2ccccc2)C1O (stereo unspecified)
11) S=c1[nH]nc(Cn2nnc3ccccc32)n1-c1ccc(Cl)cc1
12) FC(F)(F)c1ccccc1-n1c(CN2CCCCC2)n[nH]c1=S
13) S=c1[nH]nc(Cn2cnc3ccccc32)n1-c1ccccc1
14) Clc1ccccc1Cn1nnc2ccccc21
15) OCCCc1n[nH]c(=S)n1-c1ccccc1
16) S=c1[nH]nc(CN2CCCCC2)n1-c1ccc(Cl)cc1
assay / entry	9	10	11	12	13	14	15	16
G9a block	17%[2.33 µM]	?	11µM*	20µM*	8.9µM*	?	?	18µM*
JMJD2E inh	/	/	-22%	-1%	-14%	/	?	-8%
LMNA splice mod	/	/	-2%[46 µM]	/	3%[46 µM]	/	2%[46 µM]	/
Sfp inh	/	24%	-10%	-21%	?	9%	-1%	14%
ALDH1A1 inh	/	/	10%	/	?	/	?	-2%
miR-21 reporter	/	1%	-1%	-5%	-3%	-16%	0%	0%

17) C/C(=N\NC(=O)C1CC1)c1ccccc1Br
18) COc1ccc(C(=O)CSc2nnc(CN3CCCCC3)n2-c2ccc(F)cc2)cc1
19) Fc1ccc(-n2c(CN3CCCCC3)n[nH]c2=S)cc1
20) Cc1cccc(CN2CCN(CC(=O)Nc3c(C)cccc3C)S2(=O)=O)c1
21) CCn1nnc(NC(=O)CSc2ccc(Cl)cc2)n1
22) COc1cc(OC)cc(-n2c(=O)c3ccccc3n(Cc3ccccc3C#N)c2=O)c1
23) CC1=C(C#N)c2nc(N)c(C#N)c(C)c2/C1=C\c1ccc(OCC(=O)O)c(Cl)c1
24) CCN1/C(=C/c2sc(-c3ccccc3C)c[n+]2C)Sc2ccccc21
assay / entry	17	18	19	20	21	22	23	24
G9a block	?	?	45µM*	0%[59 µM]	71µM*	-28%[59 µM]	22µM*	11µM*
JMJD2E inh	/	2%	-6%	/	-4%	/	?	-21%
LMNA splice mod	/	-6%	4%[9.22 µM]	/	7%	/	/	/
Sfp inh	17%	-1%	-13%	/	0%	/	?	1%
ALDH1A1 inh	/	?	?	/	10%	/	/	?
miR-21 reporter	0%	-6%	0%	16%	-12%	9%	-3%	?

25) C=CCNC(=O)c1ccc2c(c1)N(CC)C(=O)c1ccccc1S2
26) CC(C)Sc1nnc(-c2c[nH]c3ccccc23)n1C
27) CN=c1scc(-c2c[nH]c3ccccc23)n1C
28) O=S(=O)(c1ccc2c(c1)OCCO2)N1CCNCC1
29) CCc1ccc(CNC(=O)CCc2c(C)nn(-c3ccc(N4CCCC4)nn3)c2C)cc1
30) Cc1cc([N+](=O)[O-])nn1CC(=O)NCc1ccc(Cl)cc1
31) Cc1ccc(C(=O)CSc2nnc(-c3ccco3)n2Cc2ccccc2)cc1
32) O=C(CSc1nnc(-c2ccco2)n1Cc1ccccc1)c1ccccc1
assay / entry	25	26	27	28	29	30	31	32
G9a block	7%	-5%	40µM*	?	11%[59 µM]	13%	-8%[12.7 µM]	?
JMJD2E inh	/	2%	-6%	/	/	/	0%	-5%
LMNA splice mod	/	-6%	/	/	?	/	?	-3%
Sfp inh	7%	12%	-7%	7%	/	17%	-14%	56µM*
ALDH1A1 inh	/	?	?	/	/	/	0%	?
miR-21 reporter	-4%	-44%	4%	0%	0%	0%	-35%	-49%

33) Cn1c(SCC(=O)OCc2ccccc2)nnc1-c1ccco1
34) C=CCn1c(SCC(=O)Nc2ccccc2C)nnc1-c1ccncc1
35) C=CCn1c(SCC(=O)c2c(C)[nH]c3ccccc23)nnc1-c1ccncc1
36) Cn1c(SCC(=O)c2ccc(-c3ccccc3)cc2)nnc1-c1ccco1
37) C=CCn1c(SCn2nnc3ccccc3c2=O)nnc1-c1ccc(F)cc1
38) Cn1c(SCC(=O)c2ccc(O)c(O)c2)nnc1-c1ccccc1
39) C=CCn1c(SCC(=O)N2CC(C)OC(C)C2)nnc1-c1ccncc1 (stereo unspecified)
40) CCOC(=O)c1c(C)[nH]c(C)c1C(=O)CSc1nnc(-c2ccco2)n1Cc1ccccc1
assay / entry	33	34	35	36	37	38	39	40
G9a block	?	3%[59 µM]	50µM*	?	32µM*	6%	7.9µM*	?
JMJD2E inh	4%	1%	3%	-1%	-9%	/	/	9%
LMNA splice mod	-8%	-6%	-6%[46 µM]	-11%	0%	/	/	?
Sfp inh	4%	0%	-9%	2%	9%	79µM*	/	14%
ALDH1A1 inh	?	5%	6%	10µM*	-13%	/	/	16µM*
miR-21 reporter	0%	-1%	-1%	-13%	-11%	-46%	/	-1%

# 2 records drawn at random from the list so far, as already listed:
33) Cn1c(SCC(=O)OCc2ccccc2)nnc1-c1ccco1
35) C=CCn1c(SCC(=O)c2c(C)[nH]c3ccccc23)nnc1-c1ccncc1
assay / entry	33	35
G9a block	?	50µM*
JMJD2E inh	4%	3%
LMNA splice mod	-8%	-6%[46 µM]
Sfp inh	4%	-9%
ALDH1A1 inh	?	6%
miR-21 reporter	0%	-1%

# Additional records:
41) CCOC(=O)c1c(C)[nH]c(C)c1C(=O)CSc1nnc(-c2ccncc2)n1Cc1ccccc1
42) NC1=NCC2c3ccccc3Cc3ccccc3N12 (stereo unspecified)
43) Cc1n[nH]c(=O)n1-c1ccc(OCc2ccccc2)cc1
44) CCOC(=O)CN(C(=O)CSc1nnc(-c2ccncc2)n1CCCN(C)C)c1ccccc1
45) CCOC(=O)CN(C(=O)CSc1nnc(-c2ccncc2)n1CCCOC)c1ccccc1
46) CC(=O)Nc1ccc(-c2nnc(SCC(=O)c3ccc4c(c3)Cc3ccccc3-4)n2C)cc1
47) Cn1c(SCC(=O)c2ccc3c(c2)Cc2ccccc2-3)nnc1-c1cccc(N)c1
48) Cc1cccc(-c2nnc(SCC(=O)C(C)(C)C)n2C)c1
49) Cn1c(SCc2cccc3ccccc23)nnc1-c1ccco1
50) N#CCc1nn(Cc2ccc(F)cc2)c(=O)c2ccccc12
51) CC(=O)Nc1ccc(S(=O)(=O)N2CCC(n3c(C)nc4cccnc43)CC2)cc1
assay / entry	41	42	43	44	45	46	47	48	49	50	51
G9a block	56µM*	43%[59 µM]	/	2.8µM*	-43%[59 µM]	22µM*	?	-2%	16µM*	1%	7%[59 µM]
JMJD2E inh	3%	/	8%	?	-3%	?	5%	-20%	-6%	/	/
LMNA splice mod	4%	/	/	10%	-2%	?	3%	-12%[46 µM]	-4%	/	4%[46 µM]
Sfp inh	3%	20%	4%	-14%	16%	89µM*	13%	14%	1%	5%	/
ALDH1A1 inh	-1%	/	0%	?	0%	?	-2%	11µM*	?	/	/
miR-21 reporter	-1%	/	-50%	-4%	-4%	4%	-13%	-48%	-32%	-12%	19%
